Assay results: paper PMC10303687 (2023)

T1: p53_Mt (bay mussel, UniProt Q539B9)
T1 chain: SQETFEYLWNTL


What was measured:
p53_Mt = target: T1, p53_Mt; assay: stopped flow koff/kon 10 C
p53_Hs = p53_Hs (Homo sapiens (Human), UniProt P04637); assay: stopped flow koff/kon 10 C

| Binder | Kd (p53_Mt) [µM] | Kd (p53_Hs) [nM] |
| --- | --- | --- |
| MDM2_Mt (protein) EECVVNYPMVRPRREFLDILKQVGASWEVLTRKEVCSYLKDYIGSRQLYNPNDPSIVFCKKDPLGKVFGVDKFTFTEATKLIDANCDQLPD | 15 |  |
| MDM2_Hs (protein) SQIPASEQETLVRPKPLLLKLLKSVGAQKDTYTMKEVLFYLGQYIMTKRLYDEKQQHIVYCSNDLLGDLFGVPSFSVKEHRKIYTMIYRNLVVVN |  | 11 |
